Assay results reported in patent publication US20060269942A1, “In situ click chemistry method for screening high affinity molecular imaging probes” (priority 2005, published 2006).

Tested on: CA-II
Details: 18F-labeled; correlates with high expression levels of CA-II

How did the preferential tissue binding turn out when “4-[^18F]fluoropyridine-valine-benzenesulfonamide [18F-labeled CA-II imaging agent]” was run?
The preferential tissue binding was “preferentially binds to lungs, kidneys and blood”.
